Assay results as given in IntAct's records for PubMed 26455799.

B1: ADP-ribosylation factor-like protein 3 (Mus musculus), Q9WUL7 (parent)
chain: MGLLSILRKLKSAPDQEVRILLLGLDNAGKTTLLKQLASEDISHITPTQGFNIKSVQSQGFKLNVWDIGGQRKIRPYWRSYFENTDILIYVIDSADRKRFEETGQELTELLEEEKLSCVPVLIFANKQDLLTAAPASEIAEGLNLHTIRDRVWQIQSCSALTGEGVQDGMNWVCKNVNAKKK

Variants of: B1
Conditions: with cfa36_mouse Cfap36, Q8C6E0

Row | Variant | effect of a mutation on the interaction
1 | MGLDSILRKLKSAPDQEVRILLLGLDNAGKTTLLKQLASEDISHITPTQGFNIKSVQSQGFKLNVWDIGGQRKIRPYWRSYFENTDILIYVIDSADRKRFEETGQELTELLEEEKLSCVPVLIFANKQDLLTAAPASEIAEGLNLHTIRDRVWQIQSCSALTGEGVQDGMNWVCKNVNAKKK [L4D] | decreasing interaction strength
2 | MGLLSILRKDKSAPDQEVRILLLGLDNAGKTTLLKQLASEDISHITPTQGFNIKSVQSQGFKLNVWDIGGQRKIRPYWRSYFENTDILIYVIDSADRKRFEETGQELTELLEEEKLSCVPVLIFANKQDLLTAAPASEIAEGLNLHTIRDRVWQIQSCSALTGEGVQDGMNWVCKNVNAKKK [L10D] | decreasing interaction strength
3 | MGDLSILRKLKSAPDQEVRILLLGLDNAGKTTLLKQLASEDISHITPTQGFNIKSVQSQGFKLNVWDIGGQRKIRPYWRSYFENTDILIYVIDSADRKRFEETGQELTELLEEEKLSCVPVLIFANKQDLLTAAPASEIAEGLNLHTIRDRVWQIQSCSALTGEGVQDGMNWVCKNVNAKKK [L3D] | decreasing interaction strength

Results, then the variant that gave them:

Row | effect of a mutation on the interaction | Variant
4 | decreasing interaction strength | MGLLSILRKLKSAPDQEVRILLLGLDNAGKTTLLKQLASEDISHITPTQGFNIKSVQSQGFKLNVWDIGGQRKIRPYWRSAFENTDILIYVIDSADRKRFEETGQELTELLEEEKLSCVPVLIFANKQDLLTAAPASEIAEGLNLHTIRDRVWQIQSCSALTGEGVQDGMNWVCKNVNAKKK [Y81A]
5 | decreasing interaction strength | MGLLSIDRKLKSAPDQEVRILLLGLDNAGKTTLLKQLASEDISHITPTQGFNIKSVQSQGFKLNVWDIGGQRKIRPYWRSYFENTDILIYVIDSADRKRFEETGQELTELLEEEKLSCVPVLIFANKQDLLTAAPASEIAEGLNLHTIRDRVWQIQSCSALTGEGVQDGMNWVCKNVNAKKK [L7D]
6 | decreasing interaction strength | MGLLSILRKLKSAPDQEVRILLLGLDNAGKTTLLKQLASEDISHITPTQGANIKSVQSQGFKLNVWDIGGQRKIRPYWRSYFENTDILIYVIDSADRKRFEETGQELTELLEEEKLSCVPVLIFANKQDLLTAAPASEIAEGLNLHTIRDRVWQIQSCSALTGEGVQDGMNWVCKNVNAKKK [F51A]
